Laboratory results taken from ChEMBL document CHEMBL5647683 (Oncogene, 2008).

Tests used:
[1] = Cmax in human A-431 cells xenografted athymic NMRI-nu/nu female mouse at 20 mg/kg, po administered daily for 25 days by LC-MS-MS method; assay type: ADME, organism-based; conditions: in vivo, time 25 day
[2] = Cmax in human SK-OV-3 cells xenografted athymic NMRI-nu/nu female mouse at 20 mg/kg, po administered daily for 25 days by LC-MS-MS method; assay type: ADME, organism-based; conditions: in vivo, time 25 day

CN(C)C/C=C/C(=O)Nc1cc2c(Nc3ccc(F)c(Cl)c3)ncnc2cc1O[C@H]1CCOC1 [AFATINIB]
Cmax [1]: 285 nM
Cmax [2]: 236 nM
